Apparent affinities of Ab-14 variants for a coronavirus HR2 peptide

All variants were tested on one target, the spike HR2 peptide PDVDLGDISGINAS (SARS-CoV-2).

Each scFv is VH, a 15-residue (Gly4Ser)3 linker, VL, as in the parent Ab-14, and differs from it in the CDRs of the heavy chain only.
VH: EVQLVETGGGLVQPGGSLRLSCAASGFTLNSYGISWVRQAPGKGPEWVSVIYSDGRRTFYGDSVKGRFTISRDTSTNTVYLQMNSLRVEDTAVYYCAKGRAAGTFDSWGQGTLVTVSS
VL: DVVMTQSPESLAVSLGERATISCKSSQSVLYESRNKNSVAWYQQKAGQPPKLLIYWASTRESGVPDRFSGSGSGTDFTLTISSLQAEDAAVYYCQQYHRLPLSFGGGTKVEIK

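The starting antibody came from a phage panning campaign against this peptide. AAYL49 was designed without a model: most single CDR substitutions and a random sample of double and triple ones. The scFvs were displayed on barcoded MATa yeast, the peptide on MATalpha yeast. Pairs that bind mate more often; barcode pairs of the diploids are counted by sequencing. A regression on co-assayed BCL2-family reference pairs converts the normalised counts of each replicate to an apparent Kd. The assay was run in three technical replicates.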

Substitutions are numbered in sequence along the VH above, starting at 1 (not Kabat).
Scale: log10 of Kd in nM, estimated from mating counts; low values are strong binders.
A pair that was not seen in that replicate is written "ND"; this usually means weak binding, but a binder can also be missed.
Three control strains display no target. For library AAYL49, 15% of the pairings with them gave a signal, with a median of 4.06 and one signal in twenty below 2.83, so weak values seen in few replicates may be background. For each scFv, signals with the empty controls are counted beside the result, with their mean in brackets.
In this assay the parent's reference entry averaged 0.65; its copy inside this library read 4.11 (one replicate of three).

{"changes": "Y32W+T104R+S107Y", "log10 Kd, replicates": "5.47 ND ND", "empty controls": "1 of 9 (3.38)"}
{"changes": "L29T+G103C+T104N", "log10 Kd, replicates": "3.92 4.44 3.44", "empty controls": "2 of 9 (4.88)"}
{"changes": "G55R+Y60D+D106G", "log10 Kd, replicates": "4.60 4.72 ND", "empty controls": "3 of 9 (3.64)"}
{"changes": "G26W+R56P+S107G", "log10 Kd, replicates": "ND ND 5.00", "empty controls": "2 of 9 (4.00)"}
{"changes": "L29E+S53P+F59Y", "log10 Kd, replicates": "3.90 4.71 4.11", "empty controls": "2 of 9 (3.84)"}
{"changes": "L29C+S63H+K65M", "log10 Kd, replicates": "6.10 ND 3.74", "empty controls": "2 of 9 (3.97)"}
{"changes": "Y32G", "log10 Kd, replicates": "ND ND ND", "empty controls": "3 of 9 (4.61)"}
{"changes": "G55I+T58F+K65F", "log10 Kd, replicates": "3.72 ND ND", "empty controls": "1 of 9 (3.86)"}
{"changes": "S31P+F59A+F105E", "log10 Kd, replicates": "ND ND ND", "empty controls": "0 of 9"}
{"changes": "G61F+D62W+D106N", "log10 Kd, replicates": "ND ND ND", "empty controls": "0 of 9"}
{"changes": "S35M", "log10 Kd, replicates": "ND ND ND", "empty controls": "2 of 9 (4.33)"}
{"changes": "G26D+R57A+F59M", "log10 Kd, replicates": "5.87 3.53 ND", "empty controls": "5 of 9 (4.12)"}
{"changes": "R56A+G99N", "log10 Kd, replicates": "4.12 3.22 3.20", "empty controls": "3 of 9 (4.50)"}
{"changes": "Y32S+T58V+A101G", "log10 Kd, replicates": "3.46 4.51 ND", "empty controls": "4 of 9 (4.31)"}
{"changes": "G33W+G61H+T104K", "log10 Kd, replicates": "ND ND ND", "empty controls": "1 of 9 (1.83)"}
{"changes": "G33Y+I34Q+V50L", "log10 Kd, replicates": "ND ND ND", "empty controls": "0 of 9"}
{"changes": "I34N+F59P+A102M", "log10 Kd, replicates": "ND ND ND", "empty controls": "0 of 9"}
{"changes": "S31K+G33K+I51K", "log10 Kd, replicates": "3.59 ND ND", "empty controls": "4 of 9 (4.19)"}
{"changes": "A101Y", "log10 Kd, replicates": "2.27 1.94 2.32", "empty controls": "3 of 9 (4.68)"}
{"changes": "S31M+G33R+Y52P", "log10 Kd, replicates": "4.05 ND ND", "empty controls": "0 of 9"}
{"changes": "Y52R+R57P+G99C", "log10 Kd, replicates": "ND ND ND", "empty controls": "0 of 9"}
{"changes": "N30W+K65D", "log10 Kd, replicates": "1.29 1.19 1.34", "empty controls": "0 of 9"}
{"changes": "I51H+D62V", "log10 Kd, replicates": "ND ND ND", "empty controls": "0 of 9"}
{"changes": "T58C+T104L", "log10 Kd, replicates": "2.46 2.48 2.53", "empty controls": "7 of 9 (4.34)"}
{"changes": "R57P+A101W+T104Y", "log10 Kd, replicates": "ND ND ND", "empty controls": "0 of 9"}
{"changes": "T28V+V50T+G61S", "log10 Kd, replicates": "ND ND ND", "empty controls": "0 of 9"}
{"changes": "D62F+G99M+S107L", "log10 Kd, replicates": "3.21 5.01 4.49", "empty controls": "3 of 9 (3.77)"}
{"changes": "G26C+F27K+G103D", "log10 Kd, replicates": "2.87 2.51 ND", "empty controls": "1 of 9 (4.29)"}
{"changes": "G55F+Y60A+F105G", "log10 Kd, replicates": "ND ND ND", "empty controls": "0 of 9"}
{"changes": "Y32N+I34F+F59I", "log10 Kd, replicates": "ND ND ND", "empty controls": "0 of 9"}
{"changes": "Y32F+I51P+A102D", "log10 Kd, replicates": "ND ND ND", "empty controls": "1 of 9 (4.00)"}
{"changes": "T28I+G61A", "log10 Kd, replicates": "0.76 0.97 0.82", "empty controls": "3 of 9 (3.67)"}

Excerpt, the first 4 entries:

changes	log10 Kd, replicates	empty controls
Y32W+T104R+S107Y	5.47 ND ND	1 of 9 (3.38)
L29T+G103C+T104N	3.92 4.44 3.44	2 of 9 (4.88)
G55R+Y60D+D106G	4.60 4.72 ND	3 of 9 (3.64)
G26W+R56P+S107G	ND ND 5.00	2 of 9 (4.00)

Source: Engelhart et al. 2022 (doi:10.1038/s41597-022-01779-4), MIT Lincoln Laboratory and A-Alpha Bio; data file from the FLAb repository.